{
  "source": "paper PMC4435547",
  "about": "(The journal of maternal-fetal & neonatal medicine : the …, 2009)",
  "key": {"[1]": {"test_system": "dually perfused human placental lobule", "settings": "for amount of BUP in the fetal circuit / amount of BUP remaining in the maternal circuit / amount of BUP retained by placental tissue: after 4 hours perfusion; for Buprenorphine concentration, fetal circuit / Buprenorphine concentration, maternal circuit: last hour of perfusion"}, "human serum albumin": {"test_system": "human serum albumin", "settings": "cited from earlier work"}, "gamma-globulin": {"test_system": "gamma-globulin", "settings": "cited from earlier work"}, "alpha-acid glycoprotein": {"test_system": "alpha-acid glycoprotein", "settings": "cited from earlier work"}, "P-glycoprotein": {"test_system": "P-glycoprotein", "settings": "cited from earlier work"}, "[2]": {"settings": "in presence of HSA 30 mg/mL (n=5)"}, "[3]": {"settings": "in presence of combination of HSA & AAG (n=7)"}},
  "note": "Where two headings read alike, the source gives them in different places.",
  "data": [
    {"substance": "Buprenorphine", "values": [
      {"measurement": "amount of BUP in the fetal circuit", "setting": "[1]; AAG added to both circuits", "value": "14 ± 2", "unit": "%"},
      {"measurement": "amount of BUP remaining in the maternal circuit", "setting": "[1]; AAG added to both circuits", "value": "31 ± 7", "unit": "%"},
      {"measurement": "amount of BUP retained by placental tissue", "setting": "[1]; AAG added to both circuits", "value": "55 ± 8", "unit": "%"},
      {"measurement": "amount of BUP in the fetal circuit", "setting": "[1]; HSA added to both circuits", "value": "14 ± 3", "unit": "%"},
      {"measurement": "amount of BUP remaining in the maternal circuit", "setting": "[1]; HSA added to both circuits", "value": "25 ± 5", "unit": "%"},
      {"measurement": "amount of BUP retained by placental tissue", "setting": "[1]; HSA added to both circuits", "value": "61 ± 8", "unit": "%"},
      {"measurement": "amount of BUP in the fetal circuit versus absence of proteins", "setting": "[1]; either protein or combination of HSA and AAG, P<.001", "value": "higher amounts"},
      {"measurement": "Buprenorphine Fetal/Maternal concentration ratio", "setting": "[1]; in absence of plasma proteins (n=9), end of 4 hours' perfusion", "value": "0.43 ± 0.14"},
      {"measurement": "Buprenorphine concentration, fetal circuit", "setting": "[1]; in absence of plasma proteins (n=9)", "value": "0.9 ± 0.2", "unit": "ng/mL"},
      {"measurement": "Buprenorphine concentration, maternal circuit", "setting": "[1]; in absence of plasma proteins (n=9), 10 ng/mL initial", "value": "2.2 ± 0.2", "unit": "ng/mL"},
      {"measurement": "amount of BUP in the fetal circuit", "setting": "[1]; in absence of plasma proteins", "value": "9 ± 3", "unit": "%"},
      {"measurement": "amount of BUP remaining in the maternal circuit", "setting": "[1]; in absence of plasma proteins", "value": "23 ± 3", "unit": "%"},
      {"measurement": "amount of BUP retained by placental tissue", "setting": "[1]; in absence of plasma proteins", "value": "68 ± 4", "unit": "%"},
      {"measurement": "Buprenorphine Fetal/Maternal concentration ratio", "setting": "[1]; in presence of AAG 0.6 mg/mL maternal, 0.24 mg/mL fetal (n=4), end of perfusion", "value": "0.47 ± 0.08"},
      {"measurement": "Buprenorphine Fetal/Maternal concentration ratio", "setting": "[1]; in presence of HSA 30 mg/mL (n=5), end of 4 hours' perfusion", "value": "0.59 ± 0.06"},
      {"measurement": "Buprenorphine Fetal/Maternal concentration ratio", "setting": "[1]; in presence of HSA 30 mg/mL (n=5), end of 4 hours' perfusion, listed as BUP", "value": "0.59 ± 0.06"},
      {"measurement": "Buprenorphine concentration, fetal circuit", "setting": "[1]; [2]", "value": "1.5 ± 0.3", "unit": "ng/mL"},
      {"measurement": "Buprenorphine concentration, maternal circuit", "setting": "[1]; [2]", "value": "2.3 ± 0.5", "unit": "ng/mL"},
      {"measurement": "Buprenorphine Fetal/Maternal concentration ratio", "setting": "[1]; in presence of combination of HSA & AAG (n=7), end of perfusion", "value": "0.43 ± 0.12"},
      {"measurement": "Buprenorphine concentration, fetal circuit", "setting": "[1]; [3]", "value": "1.5 ± 0.2", "unit": "ng/mL"},
      {"measurement": "Buprenorphine concentration, maternal circuit", "setting": "[1]; [3]", "value": "3.3 ± 0.6", "unit": "ng/mL"},
      {"measurement": "binding ratio", "setting": "human serum albumin", "value": 65.6, "unit": "%"},
      {"measurement": "binding ratio", "setting": "gamma-globulin", "value": 41.5, "unit": "%"},
      {"measurement": "binding ratio", "setting": "alpha-acid glycoprotein", "value": 84.9, "unit": "%"},
      {"measurement": "substrate of efflux transporter P-glycoprotein", "setting": "P-glycoprotein", "value": "not a substrate"}
    ]}
  ]
}
